In patent US8617607B2, “Sustained release formulations of psychoactive drugs” (TYRX, Inc., priority 2008, dated 2013):

Conditions: 0.1% solution, PBS, 37° C.

Cc1cc2c(s1)Nc1ccccc1N=C2N1CCN(C)CC1 [Olanzapine, 2-methyl-4-(4-methyl-1-piperazinyl)-10H-thieno[2,3-b][1,5]benzodiazepine]
stability of olanzapine: very stable
